Patent US8075916B2, “Poly(organophosphazene) hydrogels for drug delivery, preparation method thereof and use thereof” (Korea Institute of Science and Technology, priority 2007, dated 2011)

Details: pH 7.4
In the case of “poly[(glycine ethyl ester)(aminomethoxy polyethylene glycol 550)(glycinephenylalanineleucine)phosphazene] [Example 10]”, the Max. gelling temp. is reported as 33 °C.
“poly[(glycine ethyl ester)(aminomethoxy polyethyleneglycol 550)(glycinephenylalanineleucineglycine)phosphazene] [Example 11]” gave a Max. gelling temp. of 42 °C.
“poly[(isoleucine ethyl ester)(aminomethoxy polyethylene glycol 350)(glycine)phosphazene] [Example 5]” showed a Max. gelling temp. of 37 °C.
Work on “poly[(isoleucine ethyl ester)(aminomethoxy polyethylene glycol 550)(aminoethylsuccinate)(aminoethylsuccinate PEI)phosphazene] [Example 19]” yielded a Max. gelling temp. of 36 °C.
“poly[(isoleucine ethyl ester)(aminomethoxy polyethylene glycol 550)(aminoethylsuccinate)(aminoethylsuccinate ethylene heparin)phosphazene] [Example 21]” showed a Max. gelling temp. of 39 °C.
“poly[(isoleucine ethyl ester)(aminomethoxy polyethylene glycol 550)(aminoethylsuccinate)(aminoethylsuccinate protamine)phosphazene] [Example 20]” showed a Max. gelling temp. of 38 °C.
“poly[(isoleucine ethyl ester)(aminomethoxy polyethylene glycol 550)(glycylglycine)(glycyl glycyl polyethylenimine)phosphazene] [Example 13]” gave a Max. gelling temp. of 39 °C.
With “poly[(isoleucine ethyl ester)(aminomethoxy polyethylene glycol 550)(glycylglycine)(glycyl glycyl protamine)phosphazene] [Example 14]” the Max. gelling temp. was 46 °C.
Substance “poly[(isoleucine ethyl ester)(aminomethoxy polyethylene glycol 550)(glycylglycine)(glycylglycyl ethylene heparin)phosphazene] [Example 16]” has a Max. gelling temp. of 38 °C.
“poly[(isoleucine ethyl ester)(aminomethoxy polyethylene glycol 550)(glycylglycine)(glycylglycyl ethylene hyaluronic acid)phosphazene] [Example 17]” gave a Max. gelling temp. of 40 °C.
In the case of “poly[(isoleucine ethyl ester)(aminomethoxy polyethylene glycol 550)(glycylglycine)(glycylglycyl protamine)phosphazene] [Example 15]”, the Max. gelling temp. is reported as 50 °C.
Work on “poly[(isoleucine ethyl ester)(aminomethoxy polyethylene glycol 550)(glycylglycine)phosphazene] [Example 7]” yielded a Max. gelling temp. of 27 °C.
Work on “poly[(isoleucine ethyl ester)(ethyl-2-(O-glycyl)lactate)(aminomethoxy polyethyleneglycol 750)(glycylglycine)phosphazene] [Example 12]” yielded a Max. gelling temp. of 51 °C.
Substance “poly[(phenylalanine ethyl ester)(ethyl-2-(O-glycyl)lactate)(aminomethoxy polyethyleneglycol 550)] [Example 3]” has a Max. gelling temp. of 42 °C.
